The record followed here is US11366103B2, “Multi-well micropatterning by ablation” (Massachusetts Institute of Technology, priority 2006, dated 2022).

This data set relates to micropatterned co-cultures of primary human hepatocytes and 3T3-J2 fibroblasts. Conditions: 9 days of exposure, up to 200 μM.

As to `CN(CCOc1ccc(CC2SC(=O)NC2=O)cc1)c1ccccn1` (stereo not shown) [Rosiglitazone, rosiglitazone], the chronic toxicity entry was “minimal chronic toxicity”.
